Molecular target: Dual specificity mitogen-activated protein kinase kinase 1 (Homo sapiens, UniProt Q02750)

Protein sequences, listed by entry. Tags and fused reporters are not part of them.
UniProt Q02750, whole entry: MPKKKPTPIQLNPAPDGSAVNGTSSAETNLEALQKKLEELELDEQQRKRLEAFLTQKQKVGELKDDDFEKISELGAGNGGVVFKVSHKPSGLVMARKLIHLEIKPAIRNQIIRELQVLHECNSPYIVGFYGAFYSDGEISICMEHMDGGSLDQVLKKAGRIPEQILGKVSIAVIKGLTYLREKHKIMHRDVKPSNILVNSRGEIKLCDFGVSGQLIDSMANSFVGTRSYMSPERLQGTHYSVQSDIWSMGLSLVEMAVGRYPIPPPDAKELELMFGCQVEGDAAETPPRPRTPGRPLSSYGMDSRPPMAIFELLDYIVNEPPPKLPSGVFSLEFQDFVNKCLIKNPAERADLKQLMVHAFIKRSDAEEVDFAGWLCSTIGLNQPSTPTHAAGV

| IC50 [nM] | SMILES |
| --- | --- |
| 9.8 | Cn1c(=O)cc(Nc2ccc(I)cc2F)c2c(=O)n(CCO)cnc21 |
| 16 | Cn1c(=O)c(F)c(Nc2ccc(Br)cc2F)c2c(=O)n(C[C@@H](O)CO)cnc21 |

From ChEMBL document CHEMBL1681690, “Discovery of TAK-733, a potent and selective MEK allosteric site inhibitor for the treatment of cancer” (Bioorg Med Chem Lett, 2011)
